Measured values from PubChem BioAssay AID588549 (Broad Institute, 2011).
Only a part is listed here, and it is no random draw. Some tests of the compounds listed are not included; inactive here does not mean inactive elsewhere. Activity calls are given as the source filed them. Cut-off read from the data, not from the text of the source: active = inhibition above about 8.5% (passing the limit was not always enough); inconclusive = no clear call, values can overlap the other calls.

test system: Mycobacterium tuberculosis FadD28 fatty-acid-AMP ligase; test: inhibitors of FadD28 bisubstrate probe binding, primary screen, biochemical, fluorescence polarization, single point (AID 588549); conditions: at 12.5 µM, active compounds read high

Compound	inhibition
CN(C)C1CCCC1OC(=O)C(O)(c1ccccc1)c1ccccc1 (stereo not given)	inactive: -0.09%
CN(C)c1ccc(C(=O)NCC2(N(C)C)CCCCC2)cc1	inactive: -0.159%
Cc1ccccc1C(=O)NCC1(N2CCCCC2)CCCCC1	inactive: -3.42%
COc1ccc(C(=O)NCC2(N(C)C)CCCCC2)cc1	inactive: -1.96%
O=C(NCC1(N2CCCCC2)CCCCC1)c1cccc(Br)c1	inactive: -0.194%
Cc1cc(C(=O)NCC2(N3CCCCC3)CCCCC2)ccc1[N+](=O)[O-]	inactive: -2.86%
CCN1CCCC(OC(=O)C2(O)c3ccccc3C=Cc3ccccc32)C1 (stereo not given)	inactive: -2.77%
C=CCN1CCN(CCOC(=O)C(O)(c2ccccc2)c2ccccc2)CC1	inactive: -0.721%
CN1[C@@H]2CC[C@H]1CC(OC(=O)C(O)(c1ccccc1)c1ccccc1)C2 (stereo not given in full)	inactive: -1.26%
O=C(NCC1(N2CCCCC2)CCCCC1)c1cc([N+](=O)[O-])ccc1Cl	inactive: -0.43%
Cc1ccc(C(=O)NCC2(N3CCCCC3)CCCCC2)cc1	inactive: -3.69%
COc1cc(SC)ccc1C(=O)NCC1(N(C)C)CCCCC1	inactive: -0.585%
CCN(CC)CC(C)C(C)OC(=O)C(O)(c1ccccc1)c1ccccc1 (stereo not given)	inactive: -0.72%
CC(C)N1C(=O)CC2(CCN(CCOC(=O)C(O)(c3ccccc3)c3ccccc3)CC2)C1=O	inactive: -4.14%
O=C(OC1CN2CCC1CC2)C(CO)(c1ccccc1)c1ccccc1 (stereo not given)	inactive: -0.704%
O=C(OCCN1CCCC1)C(O)(c1ccccc1)c1ccccc1	inactive: -1.11%
CC(C)Oc1ccc(C(=O)NCC2(N(C)C)CCCCC2)cc1	inactive: -0.382%
CN(C)c1cccc(C(=O)NCC2(N(C)C)CCCCC2)c1	inactive: -3.33%
C=C(C)C#CC(O)(C(=O)OC1CCN(C)CC1)c1ccccc1 (stereo not given)	inactive: -1.56%
COc1ccc(Br)c(C(=O)NCC2(N3CCCCC3)CCCCC2)c1	inactive: -21.7%
COc1cc(C(=O)NCC2(N(C)C)CCCCC2)c([N+](=O)[O-])cc1OC	inactive: -2.89%
CN(C)C1(CNC(=O)c2ccc(Br)cc2)CCCCC1	inactive: -3.99%
O=C(NCC1(N2CCCCC2)CCCCC1)c1cccc(Cl)c1	inactive: -0.699%
COc1ccc(Cl)cc1C(=O)NCC1(N(C)C)CCCCC1	inactive: -2.3%
COc1cccc(C(=O)NCC2(N3CCCCC3)CCCCC2)c1	inactive: -3.21%
